Article PMC12301332, “Biased antagonism of a series of bicyclic CXCR2 intracellular allosteric modulators” (Frontiers in Pharmacology, 2025)

The chains behind the UniProt entries cited, without tags or fusion partners.
UniProt P25025, whole entry: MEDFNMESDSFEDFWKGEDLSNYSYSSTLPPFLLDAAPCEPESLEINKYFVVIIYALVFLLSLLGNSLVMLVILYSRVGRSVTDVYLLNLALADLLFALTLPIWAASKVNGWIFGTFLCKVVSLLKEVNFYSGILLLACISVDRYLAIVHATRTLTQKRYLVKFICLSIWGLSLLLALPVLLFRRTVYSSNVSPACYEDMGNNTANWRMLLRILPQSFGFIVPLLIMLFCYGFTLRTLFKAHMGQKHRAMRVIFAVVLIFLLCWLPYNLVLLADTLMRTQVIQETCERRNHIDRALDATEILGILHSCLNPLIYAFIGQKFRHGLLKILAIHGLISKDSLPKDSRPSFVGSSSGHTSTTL

How the values were obtained:
Format in all cases: cell-based
[1] = biological target: T1, CXCR2 (Homo sapiens, UniProt P25025); test: Bias analysis (bias plot, bias index) of β-arrestin1 recruitment inhibition versus Gαi1 activation inhibition, navarixin as reference; settings: all ELR+ chemokines; navarixin as reference antagonist
T1 construct: expressed in transfected cells
Description: For signaling bias calculations, constraints were set to bottom values equal to zero. The calculated top values generated by nonlinear fit log (inhibitor) vs response (three parameters) in GraphPad 10.2.1 were taken as Imax. […] The bias index values were calculated, as is shown in calculation 2. Briefly, log(Imax/IC50) was calculated. […] Finally, the bias index was calculated by subtracting the ∆log (Imax/IC50) of the tested compound from the stated reference pathway from that of the pathway of interest. […] The statistical significance of H1 was evaluated using a one-sample T-test with Benjamini-Hochberg correction applied for multiple comparisons, whereas H2 was assessed using a one-way ANOVA followed by Tukey’s test.
Bias index=∆LogImax/IC50P1:β−arr1−∆LogImax/IC50P2:Gai1 .
Bias plots are equimolar comparisons between the two pathways of interest.

[2] = biological target: T1, CXCR2; test: NanoBRET-based G protein activation inhibition assay (REGA-SIGN Gαi1 dissociation) in HEK293A.CXCR2 cells; settings: normalized to Imax of navarixin = 100%, n = 3
Description: Cells were trypsinized and resuspended at 3 × 10^5 cell/mL in the growth medium, whereafter they were incubated for 2 hours at RT. Cells were transfected in suspension using FuGENE® HD Transfection Reagent at a 3:1 reagent to DNA ratio in Opti-MEMTM I Reduced-Serum Medium, with the final DNA concentration of 1 μg/μL. The transfection mixture was incubated for 10 min at RT before adding it to the cell suspension. Transfected cells were seeded at 3.0 × 10^4 cells/well in a white, clear, flat-bottom 96-well plate coated with 100 μg/mL poly-D-lysin ([…], Sigma Aldrich) and incubated for 48 h at 37°C and 5% CO2. […] (2023)]. Following the 48-h incubation period, cells were washed with the assay buffer. Compounds were serially diluted in 1:500 Nano-Glo® Vivazine^TM working solution (#N2581, Promega), and 90 μL of compound/Vivazine mix was added, followed by incubation for 45 min at 37°C and 5% CO2. Plates were transferred to the FLIPR Penta system (Molecular Devices) at 37°C, and all steps onward are automated and performed by the FLIPR Penta system. After a 10-min equilibration period, the baseline BRET signal was determined by five consecutive reads followed by automatic administration of 10 μL of 10× ligand (Table 1) to the cell plate. Changes in the BRET signal was measured for 10 min, with each read spaced by 2.5 s. […] BRET ratios were extracted from ScreenWorks software (Molecular Devices) and represent the ratio between the acceptor emission of […]2 or mNG (G protein or β-arrestin recruitment, respectively) and NLuc donor emission. The basal BRET ratio was defined as the average BRET ratio of the five consecutive readings preceding ligand addition. Changes in BRET values post ligand administration (ΔBRET) were calculated for each well as a percentage difference to the previously defined basal BRET ratio. Average ΔBRET values were baseline corrected by subtracting the average negative control BRET ratio (unstimulated condition). […] AUCs were normalized to the positive control (stimulated condition); whereafter, dose-response curves were fitted to log (inhibitor) vs response (three parameters) in GraphPad 10.2.0 (GraphPad Software). […] Calculation 1: calculation of the BRET signal. • 1. […] NC correctedΔBRET=Δ[…]. • 4. a. Neg AUC of NC correctedΔBRET=Gα activation read out. b. Pos AUC of NC correctedΔBRET=β-arrestin recruitment.

[3] = biological target: T1, CXCR2; test: NanoBRET β-arrestin1 recruitment inhibition assay (NanoLux) in HEK293A cells; settings: normalized to Imax of navarixin = 100%, n = 3
Description: Cells were trypsinized and resuspended at 3 × 10^5 cell/mL in the growth medium, whereafter they were incubated for 2 hours at RT. Cells were transfected in suspension using FuGENE® HD Transfection Reagent at a 3:1 reagent to DNA ratio in Opti-MEMTM I Reduced-Serum Medium, with the final DNA concentration of 1 μg/μL. The transfection mixture was incubated for 10 min at RT before adding it to the cell suspension. Transfected cells were seeded at 3.0 × 10^4 cells/well in a white, clear, flat-bottom 96-well plate coated with 100 μg/mL poly-D-lysin ([…], Sigma Aldrich) and incubated for 48 h at 37°C and 5% CO2. HEK293A cells were transiently co-transfected with plasmids encoding β-arrestin1 protein tagged with NLuc (donor) and CXCR2 protein tagged with mNeonGreen (mNG) acceptor in a 1:10 donor to acceptor ratio, as described previously ([Luís et al., 2022]). All subsequent steps are identical to those in “NanoBRET-based G protein activation inhibition assay,” which are described above. Measurements were acquired using a 440- to 480-nm donor emission filter (#0200-6179, Molecular Devices) and a 515- to 575-nm acceptor emission filter (#0200-6203, Molecular Devices) BRET ratios were extracted from ScreenWorks software (Molecular Devices) and represent the ratio between the acceptor emission of […]2 or mNG (G protein or β-arrestin recruitment, respectively) and NLuc donor emission. The basal BRET ratio was defined as the average BRET ratio of the five consecutive readings preceding ligand addition. Changes in BRET values post ligand administration (ΔBRET) were calculated for each well as a percentage difference to the previously defined basal BRET ratio. Average ΔBRET values were baseline corrected by subtracting the average negative control BRET ratio (unstimulated condition). […] AUCs were normalized to the positive control (stimulated condition); whereafter, dose-response curves were fitted to log (inhibitor) vs response (three parameters) in GraphPad 10.2.0 (GraphPad Software). […] Calculation 1: calculation of the BRET signal. • 1. […] NC correctedΔBRET=Δ[…]. • 4. a. Neg AUC of NC correctedΔBRET=Gα activation read out. b. Pos AUC of NC correctedΔBRET=β-arrestin recruitment.

bias profile (bias plot), β-arrestin1 recruitment inhibition vs Gαi1 activation inhibition [1]: unbiased
Imax Gαi1 (maximum observed inhibitory effect) ([2]; CXCL1 at EC80): 100%
Imax Gαi1 (maximum observed inhibitory effect) ([2]; CXCL2 at EC80): 100%
Imax Gαi1 (maximum observed inhibitory effect) ([2]; CXCL3 at EC80): 100%
Imax Gαi1 (maximum observed inhibitory effect) ([2]; CXCL5 at EC80): 100%
Imax Gαi1 (maximum observed inhibitory effect) ([2]; CXCL6 at EC80): 100%
Imax Gαi1 (maximum observed inhibitory effect) ([2]; CXCL7 at EC80): 100%
Imax Gαi1 (maximum observed inhibitory effect) ([2]; CXCL8 at EC80): 100%
Imax βarr1 (maximum observed inhibitory effect) ([3]; CXCL1 at EC80): 100%
Imax βarr1 (maximum observed inhibitory effect) ([3]; CXCL2 at EC80): 100%
Imax βarr1 (maximum observed inhibitory effect) ([3]; CXCL3 at EC80): 100%
Imax βarr1 (maximum observed inhibitory effect) ([3]; CXCL5 at EC80): 100%
Imax βarr1 (maximum observed inhibitory effect) ([3]; CXCL6 at EC80): 100%
Imax βarr1 (maximum observed inhibitory effect) ([3]; CXCL7 at EC80): 100%
Imax βarr1 (maximum observed inhibitory effect) ([3]; CXCL8 at EC80): 100%
Structure (SMILES): CC[C@@H](Nc1c(Nc2cccc(C(=O)N(C)C)c2O)c(=O)c1=O)c1ccc(C)o1 [Navarixin, navarixin, reference compound]
